The target of the assay is Acetylcholinesterase (Electrophorus electricus, UniProt O42275). Description: Inhibition of Electrophorus electricus (electric eel) AChE using acetylthiocholine iodide as substrate incubated for 15 min prior to substrate addition measured after 30 min by Ellman's spectrophotometric method. On the technique in general: In Ellman's method for cholinesterases, released thiocholine reacts with DTNB.

Sequences of proteins named here, by UniProt entry; tags and fusion partners are left off. A change or cut given only in a name is not applied to a line headed by its entry.
UniProt O42275: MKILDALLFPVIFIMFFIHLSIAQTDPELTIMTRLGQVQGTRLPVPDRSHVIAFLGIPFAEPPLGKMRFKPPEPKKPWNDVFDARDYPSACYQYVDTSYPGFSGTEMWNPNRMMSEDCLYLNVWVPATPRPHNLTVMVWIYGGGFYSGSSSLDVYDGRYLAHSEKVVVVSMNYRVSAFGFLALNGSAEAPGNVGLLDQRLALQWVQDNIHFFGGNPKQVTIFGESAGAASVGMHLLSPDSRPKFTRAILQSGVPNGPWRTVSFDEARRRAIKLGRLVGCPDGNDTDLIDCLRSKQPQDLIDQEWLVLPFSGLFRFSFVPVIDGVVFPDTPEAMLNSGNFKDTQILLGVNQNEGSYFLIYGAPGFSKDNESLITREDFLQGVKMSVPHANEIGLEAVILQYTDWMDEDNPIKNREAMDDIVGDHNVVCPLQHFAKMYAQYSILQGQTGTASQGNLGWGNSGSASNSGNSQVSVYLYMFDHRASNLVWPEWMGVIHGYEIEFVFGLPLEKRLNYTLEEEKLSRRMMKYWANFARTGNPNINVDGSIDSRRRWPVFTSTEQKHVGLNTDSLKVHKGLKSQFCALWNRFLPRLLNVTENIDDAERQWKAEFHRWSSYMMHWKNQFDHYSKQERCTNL

Molecules are shown by their SMILES.

These results are taken from ChEMBL document CHEMBL3046656, “Apoptotic effects of some carbazole derivatives on lung carcinoma and glioma cell lines” (Med Chem Res, 2013).

The IC50 is the concentration needed to halve the response being measured. For the molecule `CNC(=O)Oc1ccc2c(c1)[C@]1(C)CCN(C)[C@@H]1N2C` [PHYSOSTIGMINE], the IC50 is 123 nM.
